In the assay the test system is PIGA-null TF-1 cells. Put plainly: Modified Ham test (WST-1 cell viability after serum exposure). The conditions noted are these: for cell killing (% non-viable cells) by HELLP serum mixed with eculizumab-containing serum: HELLP/ECU sera 50-50%, 25-75%, 12.5-87.5%, total serum 20%, versus HELLP serum alone, p=0.007. In general terms: Tetrazolium dyes change colour on reduction, which living cells bring about.

B1: eculizumab (antibody, chains of the INN, looked up)
heavy: QVQLVQSGAEVKKPGASVKVSCKASGYIFSNYWIQWVRQAPGQGLEWMGEILPGSGSTEYTENFKDRVTMTRDTSTSTVYMELSSLRSEDTAVYYCARYFFGSSPNWYFDVWGQGTLVTVSSASTKGPSVFPLAPCSRSTSESTAALGCLVKDYFPEPVTVSWNSGALTSGVHTFPAVLQSSGLYSLSSVVTVPSSNFGTQTYTCNVDHKPSNTKVDKTVERKCCVECPPCPAPPVAGPSVFLFPPKPKDTLMISRTPEVTCVVVDVSQEDPEVQFNWYVDGVEVHNAKTKPREEQFNSTYRVVSVLTVLHQDWLNGKEYKCKVSNKGLPSSIEKTISKAKGQPREPQVYTLPPSQEEMTKNQVSLTCLVKGFYPSDIAVEWESNGQPENNYKTTPPVLDSDGSFFLYSRLTVDKSRWQEGNVFSCSVMHEALHNHYTQKSLSLSLG
light: DIQMTQSPSSLSASVGDRVTITCGASENIYGALNWYQQKPGKAPKLLIYGATNLADGVPSRFSGSGSGTDFTLTISSLQPEDFATYYCQNVLNTPLTFGQGTKVEIKRTVAAPSVFIFPPSDEQLKSGTASVVCLLNNFYPREAKVQWKVDNALQSGNSQESVTEQDSKDSTYSLSSTLTLSKADYEKHKVYACEVTHQGLSSPVTKSFNRGEC
modifications: in PNH patient serum
In the case of B1, the “cell killing (% non-viable cells) by HELLP serum mixed with eculizumab-containing serum” value is given as “significant decrease of cell killing”. For the setting “listed as Eculizumab”, the “cell killing (% non-viable cells) by HELLP serum mixed with eculizumab-containing serum” value was “significantly lower”. Where the note is “serum diluted 1:1 and 1:2”, the “cell killing by serum of aHUS patients on eculizumab” value is listed as “almost completely abrogated”. Also, the “cell killing by eculizumab-containing serum alone” value (serum from a PNH patient within 60 minutes of eculizumab infusion) is reported as “no increase in cell killing”.

These data come from patent US11499964B2, “Assay to diagnose and treat disorders of the alternative pathway of complement activation” (THE JOHNS HOPKINS UNIVERSITY, priority 2015, dated 2022).
